{"source": "patent US7888059B2", "about": "“Highly purified and stabilized Na,K-ATPase isoforms and methods of producing same” (Yeda Research and Development Co. Ltd., priority 2006, dated 2011)", "biological_target": "T1, human α1β1 (Homo sapiens, UniProt P05023)", "T1 construct": "The coding regions were excised with XbaI and subcloned; made in house; host or cells: Pichia pastoris SMD1165", "experiment": "Stabilization of human α1β1 Na,K-ATPase activity over time (lipids, sterols, FXYD1)", "assay_type": "biochemical", "settings": "45° C.; human α1β1 prepared with SOPS/cholesterol and PLM", "procedure": "Urea-treated membranes were homogenized with n-dodecyl-β-maltoside (DDM:protein, 2:1 w/w) (cat. No D310, Anatrace) in a medium containing NaCl, 250 mM; Tris.HCl, 20 mM pH 7.4; imidazole, 5 mM; PMSF, 0.5 mM; and glycerol, 10%. The protein concentration could be varied from 1-5 mg/ml and DDM adjusted accordingly from 2-10 mg/ml respectively. The unsolubilized material was removed by ultracentrifugation. Purification was done by metal-chelate chromatography using BD Talon, metal affinity resin (Co^2+-chelate). The DDM-solubilized membranes were incubated overnight at 4° C. with BD Talon beads, at a ratio of 100 μl beads per supernatant from 10 mg of membranes. EDTA was added at 50-250 μM at protein concentrations 1-5 mg/ml, respectively. The beads were washed twice for five minutes with vortexing with five volumes of a solution containing NaCl, 100 mM; Tris.HCl, 20 mM pH 7.4; C12E8, 0.1 mg/ml; DOPS or SOPS 0.05 mg/ml or other lipids and cholesterol at 0.01 mg/ml, as indicated; glycerol, 10%, and imidazole, 10 mM. […] Protein concentration was determined by comparative gel densitometry with pig kidney Na^+,K^+-ATPase or by Lowry assay. […]", "data": [{"substance": "PLM: human FXYD1, subsidiary subunit of Na,K-ATPase, Genbank Accession No. H23593", "values": [{"measurement": "stability of Na,K-ATPase activity", "result": "essentially stable over 150 minutes at 45 °C"}]}]}
